For experiment [1], the target named is human Peroxisome Proliferator-activated Receptor delta (PPARd), PPARD (gene 5467) (UniProt Q03181). Briefly: ATG_PPARd_TRANS: Attagene TRANS-FACTORIAL HepG2 Assay for human Peroxisome Proliferator-activated Receptor delta (PPARd) (AID 2283002). Summed up: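 HepG2 cells transiently transfected with GAL4-UAS multiplexed reporter units driven by exogenous chimeric NR-GAL4 proteins; 24 h compound exposure. Reporter mRNA measured by RT-PCR, 6-FAM primer extension, HpaI digestion and capillary electrophoresis; gain of signal fitted relative to DMSO.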

Chains of the proteins cited; added tags and fusions are not shown. Lines headed by an entry give the natural chain unless they say otherwise; changes in a name come on top.
UniProt Q03181: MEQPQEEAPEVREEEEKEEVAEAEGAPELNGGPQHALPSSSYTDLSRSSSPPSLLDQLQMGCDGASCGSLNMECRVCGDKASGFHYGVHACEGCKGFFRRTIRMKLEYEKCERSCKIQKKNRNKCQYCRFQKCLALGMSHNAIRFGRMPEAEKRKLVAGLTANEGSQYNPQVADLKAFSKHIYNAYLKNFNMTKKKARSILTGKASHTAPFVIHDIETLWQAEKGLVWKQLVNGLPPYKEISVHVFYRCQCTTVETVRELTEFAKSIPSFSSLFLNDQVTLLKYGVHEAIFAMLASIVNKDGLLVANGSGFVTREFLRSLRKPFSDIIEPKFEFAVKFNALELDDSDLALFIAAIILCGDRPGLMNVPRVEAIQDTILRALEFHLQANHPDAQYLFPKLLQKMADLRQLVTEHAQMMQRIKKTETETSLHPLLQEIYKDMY
UniProt P37231: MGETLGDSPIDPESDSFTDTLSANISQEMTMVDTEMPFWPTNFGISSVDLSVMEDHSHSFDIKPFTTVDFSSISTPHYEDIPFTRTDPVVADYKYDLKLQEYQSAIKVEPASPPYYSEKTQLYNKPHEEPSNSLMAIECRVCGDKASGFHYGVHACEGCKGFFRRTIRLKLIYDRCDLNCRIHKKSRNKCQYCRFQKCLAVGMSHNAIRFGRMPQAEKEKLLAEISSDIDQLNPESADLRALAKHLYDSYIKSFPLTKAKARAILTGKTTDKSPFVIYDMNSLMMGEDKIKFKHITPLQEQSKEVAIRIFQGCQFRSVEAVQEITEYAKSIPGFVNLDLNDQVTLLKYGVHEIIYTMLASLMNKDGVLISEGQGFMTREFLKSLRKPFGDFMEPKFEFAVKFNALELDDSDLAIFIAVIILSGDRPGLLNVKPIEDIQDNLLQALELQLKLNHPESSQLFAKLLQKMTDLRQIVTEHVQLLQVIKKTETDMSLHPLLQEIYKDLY
UniProt O75469: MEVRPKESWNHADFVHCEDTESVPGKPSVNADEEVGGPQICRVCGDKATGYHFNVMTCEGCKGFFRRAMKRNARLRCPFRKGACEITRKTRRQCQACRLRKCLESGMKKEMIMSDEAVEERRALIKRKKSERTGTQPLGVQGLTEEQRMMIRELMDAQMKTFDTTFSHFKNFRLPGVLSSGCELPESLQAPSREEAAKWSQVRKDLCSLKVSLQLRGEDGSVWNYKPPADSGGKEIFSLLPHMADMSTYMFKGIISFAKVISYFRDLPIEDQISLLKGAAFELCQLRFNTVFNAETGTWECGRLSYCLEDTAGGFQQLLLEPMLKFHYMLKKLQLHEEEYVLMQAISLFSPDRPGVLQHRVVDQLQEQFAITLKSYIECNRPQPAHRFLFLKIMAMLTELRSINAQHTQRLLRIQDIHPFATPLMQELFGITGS
UniProt Q07869: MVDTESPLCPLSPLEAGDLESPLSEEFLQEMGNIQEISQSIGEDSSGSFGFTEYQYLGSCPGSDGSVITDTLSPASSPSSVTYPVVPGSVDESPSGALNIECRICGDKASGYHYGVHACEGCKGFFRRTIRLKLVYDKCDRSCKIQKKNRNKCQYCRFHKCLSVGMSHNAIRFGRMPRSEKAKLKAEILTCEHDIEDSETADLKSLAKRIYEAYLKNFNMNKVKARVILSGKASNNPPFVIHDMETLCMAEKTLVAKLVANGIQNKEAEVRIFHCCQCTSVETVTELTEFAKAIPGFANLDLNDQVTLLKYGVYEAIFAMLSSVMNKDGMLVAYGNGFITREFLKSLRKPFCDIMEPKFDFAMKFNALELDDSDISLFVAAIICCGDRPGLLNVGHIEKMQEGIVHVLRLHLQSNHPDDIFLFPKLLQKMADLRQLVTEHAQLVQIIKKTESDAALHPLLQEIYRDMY
UniProt P10826, whole entry, looked up: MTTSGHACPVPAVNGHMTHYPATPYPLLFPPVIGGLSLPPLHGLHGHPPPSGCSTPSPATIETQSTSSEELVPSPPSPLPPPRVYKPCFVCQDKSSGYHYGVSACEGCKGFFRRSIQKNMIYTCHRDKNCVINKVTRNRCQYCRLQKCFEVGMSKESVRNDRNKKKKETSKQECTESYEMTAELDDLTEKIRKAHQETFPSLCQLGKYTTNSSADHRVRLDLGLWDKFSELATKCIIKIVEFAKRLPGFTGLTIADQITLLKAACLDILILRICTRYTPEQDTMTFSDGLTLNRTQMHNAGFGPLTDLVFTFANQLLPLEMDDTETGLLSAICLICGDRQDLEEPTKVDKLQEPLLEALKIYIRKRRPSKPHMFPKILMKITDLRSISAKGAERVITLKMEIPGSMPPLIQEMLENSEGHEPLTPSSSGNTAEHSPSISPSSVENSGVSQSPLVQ
UniProt P10276, whole entry, looked up: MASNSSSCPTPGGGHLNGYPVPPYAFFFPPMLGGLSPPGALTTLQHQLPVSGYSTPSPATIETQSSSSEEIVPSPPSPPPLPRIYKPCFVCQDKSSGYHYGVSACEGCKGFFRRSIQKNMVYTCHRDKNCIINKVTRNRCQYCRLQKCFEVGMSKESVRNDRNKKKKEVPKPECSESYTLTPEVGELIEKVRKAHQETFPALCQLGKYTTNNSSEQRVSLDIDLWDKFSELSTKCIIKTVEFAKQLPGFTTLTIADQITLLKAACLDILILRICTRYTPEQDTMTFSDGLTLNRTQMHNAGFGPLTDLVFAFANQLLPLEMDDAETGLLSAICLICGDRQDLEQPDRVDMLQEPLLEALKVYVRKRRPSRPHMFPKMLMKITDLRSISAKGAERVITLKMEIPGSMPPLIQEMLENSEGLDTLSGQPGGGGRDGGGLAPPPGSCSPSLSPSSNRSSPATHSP

The target in experiment [2] is Peroxisome proliferator-activated receptor gamma (Homo sapiens) (UniProt P37231). Description: ATG_PPARg_TRANS: Attagene TRANS-FACTORIAL HepG2 Assay for human Peroxisome Proliferator-activated Receptor-gamma (PPARg) (AID 2283007). Summed up: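 A TRANS-format multiplexed reporter assay measures activity of an exogenous chimeric NR-Gal4 protein in HepG2 cells. After 24 h of chemical exposure, reporter transcripts are amplified, fluorescently labelled and sized by capillary electrophoresis, with gain of signal scored against DMSO.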

For experiment [3], the target named is Nuclear receptor subfamily 1 group I member 2 (Homo sapiens) (UniProt O75469). Description: ATG_PXR_TRANS: Attagene TRANS-FACTORIAL HepG2 Assay for human Pregnane X Receptor (PXR) (AID 2283008). In a few lines: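 Multiplexed TRANS reporter panel in HepG2; this component tracks PXR-Gal4-driven reporter mRNA after 24 h dosing, measured by RT-PCR with capillary electrophoresis fluorescence, fitted against DMSO.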

Experiment [4] can be described thus: BSK_3C_VCAM1: BioMAP Diversity Plus: 3C Assay for Vascular cell adhesion molecule 1 (VCAM1) Biomarker Activity (AID 2282999; active = hit-call score of the fitted dose curve at least 0.9, where 1 is the maximum; inactive = score below 0.9). The note with it: BioMAP 3C HUVEC, VCAM1 ELISA, cytokine-stimulated; actives raise or lower the signal. In a few lines:
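HUVEC primary cells, 24 h compound exposure; VCAM-1 by ELISA; gain/loss of signal fitted bidirectionally vs DMSO baseline.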
(ELISA stands for enzyme-linked immunosorbent assay.)

Experiment [5] in a line: BSK_4H_Eotaxin3: BioMAP Diversity Plus: 4H Assay for Eotaxin 3 Biomarker Activity (AID 2283000; active = hit-call score of the fitted dose curve at least 0.9, where 1 is the maximum; inactive = score below 0.9;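 as to outcome: CCL26 protein level quantified by ELISA in parallel with SRB cytotoxicity check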). To be noted: actives raise or lower the signal; primary human endothelial cells (HUVEC). In a few lines: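 ELISA quantitation of CCL26 (Eotaxin-3) protein from chemically dosed human vascular endothelial cells at 24 h; increases and decreases both scored relative to DMSO-treated baseline.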

For experiment [6], the target named is human Peroxisome Proliferator-activated Receptor alpha (PPARa), PPARA (gene 5465) (UniProt Q07869). Briefly: ATG_PPARa_TRANS: Attagene TRANS-FACTORIAL HepG2 Assay for human Peroxisome Proliferator-activated Receptor alpha (PPARa) (AID 2283001). In a few lines:
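HepG2, transient MRTU transfection, 24 h treatment. RT-PCR → FAM labelling → capillary electrophoresis. Fit vs DMSO, positive direction.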

Read-out in experiment [7]: Intercellular Adhesion Molecule 1 (ICAM1), ICAM1 (gene 3383)
Briefly: BSK_3C_ICAM1: BioMAP Diversity Plus: 3C Assay for Intercellular Adhesion Molecule 1 (ICAM1) Biomarker Activity (AID 2283003; active = hit-call score of the fitted dose curve at least 0.9, where 1 is the maximum; inactive = score below 0.9). To be noted: actives raise or lower the signal; primary human endothelial cells (HUVEC). As to the method: BSK_3C is a cell-based, multiplexed-readout assay that uses umbilical vein endothelium, a human vascular primary cell, with measurements taken at 24 hours after chemical dosing in a 96-well plate.BSK_3C_ICAM1 is an assay component measured in the BSK_3C assay. It measures ICAM-1 antibody related to regulation of gene expression using ELISA technology.Data from the assay component BSK_3C_ICAM1 was analyzed into 1 assay endpoint. This assay endpoint, BSK_3C_ICAM1, was analyzed with bidirectional fitting relative to DMSO as the negative control and baseline of activity. Using a type of binding reporter, gain or loss-of-signal activity can be used to understand changes in the signaling as they relate to the gene ICAM1. Furthermore, this assay endpoint can be referred to as a primary readout, because this assay has produced multiple assay endpoints where this one serves a signaling function. To generalize the intended target to other relatable targets, this assay endpoint is annotated to the cell adhesion molecules intended target family, where the subfamily is Immunoglobulin CAM.
(§1) The levels of cell surface (or secreted, indicated by the prefix "s") biomarker endpoints were measured by ELISA. Overt cytotoxicity to cells in confluent adherent cultures (all systems other than the BT system) was assessed by measuring total protein levels using sulforhodamine B (SRB) staining in parallel cultures at the time of biomarker measurements, indicated as SRB endpoints. For proliferation assays for adherent cell types, individual cell types are cultured at sub-confluence and relative cell numbers quantified by SRB staining at time points optimized for each system (48 h: 3C and CASM3C systems; 72 h: BT and HDF3CGF systems; 96 h: SAg system). SRB was performed by staining cells with 0.1% SRB after fixation with 10% TCA and reading wells at 560 nm.Viability and proliferation of PBMC (T cells) was quantified by Alamar Blue reduction for the SAg and BT systems. For PBMC viability (referred to as PBMC Cytotoxicity within the assay endpoint names), cells were plated (75,000/well in a 96-well plate) and then chemical samples added for 1 h before addition of activators, SEB and TSST-1 (20 ng/mL final concentration each). Cells were incubated for 90 h. Then, Alamar Blue (20 uL/well) (Invitrogen, Cat DAL1100) was added for 6 h, and the plates were read with a fluorescence microplate reader at 546/580 nm (excitation/emission). For PBMC proliferation, cells were plated and activated as above but incubated for only 16 h prior to addition of Alamar Blue. Plates were read after 6 h.

Experiment [8] deals with human Retinoic Acid Receptor beta (RARb), RARB (gene 5915) (UniProt P10826). Briefly: ATG_RARb_TRANS: Attagene TRANS-FACTORIAL HepG2 Assay for human Retinoic Acid Receptor beta (AID 2283004). In a few lines:
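Fluorescent capillary-electrophoresis detection of GAL4-UAS reporter mRNA defines the endpoint, with induction over DMSO-treated wells scored as activity. Transiently transfected human hepatoma HepG2 cells expressing exogenous NR–Gal4 proteins are exposed to test chemicals for 24 h.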

Experiment [9] has as its target Retinoic acid receptor alpha (Homo sapiens) (UniProt P10276). Description: ATG_RARa_TRANS: Attagene TRANS-FACTORIAL HepG2 Assay for human Retinoic Acid Receptor alpha (RARa) (AID 2283005). Summed up: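 HepG2 transiently transfected with multiplex GAL4-UAS reporter units including a human RARa–GAL4 chimera; 24 h compound exposure. Reporter mRNA quantified by RT-PCR, 6-FAM labeling and capillary electrophoresis; gain of signal versus DMSO.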

The nature of experiment [10]: BSK_3C_Proliferation: Cell Proliferation Assessment in the BioMAP Diversity Plus: 3C Assay (AID 2283006; active = hit-call score of the fitted dose curve at least 0.9, where 1 is the maximum; inactive = score below 0.9;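 as to AC50: potency may reflect either rise or fall in cell number versus DMSO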). The note with it: primary human endothelial cells (HUVEC). How it is done: BSK_3C is a cell-based, multiplexed-readout assay that uses umbilical vein endothelium, a human vascular primary cell, with measurements taken at 24 hours after chemical dosing in a 96-well plate.BSK_3C_Proliferation is an assay component measured in the BSK_3C assay. It measures 0.1% sulforhodamine related to cell proliferation using Sulforhodamine staining technology.Data from the assay component BSK_3C_Proliferation was analyzed into 1 assay endpoint. This assay endpoint, BSK_3C_Proliferation, was analyzed with bidirectional fitting relative to DMSO as the negative control and baseline of activity. Using a type of viability reporter, measures of total protein for gain or loss-of-signal activity can be used to understand the viability at the cellular-level. Furthermore, this assay endpoint can be referred to as a secondary readout, because this assay has produced multiple assay endpoints where this one serves a viability function. To generalize the intended target to other relatable targets, this assay endpoint is annotated to the cell cycle intended target family, where the subfamily is proliferation.
as §1

Several values for one entry are separate records, joined by “and”; a condition that tells them apart may be missing. Equal entries are not always repeated. This is a selection; strong and weak results do not stand in their true shares. Inconclusive results are not listed. The source holds several records for some structures; these can differ, active in one and inactive in another. Activity calls are given as the source filed them. The calls were made as follows, unless noted: active = hit-call score of the fitted dose curve at least 0.9, where 1 is the maximum; inconclusive = response in the unintended direction; inactive = score below 0.9.

A word on the AC50: it is the midpoint of the concentration-response curve, whichever way the signal moves.

On to `O=P(Cl)(Oc1ccccc1)Oc1ccccc1`, for which the molecule was classed as inactive in [1], in [2] and in experiment [3].
In the case of `CC(C)OP(=S)(OC(C)C)SCCNS(=O)(=O)c1ccccc1`, the AC50 is active: 34.2 µM and active: 31 µM and active: 37 µM in experiment [4]; active: 31.3 µM and active: 37.8 µM in experiment [5]; active: 32.8 µM in [7]; active: 354 nM and active: 457 nM and active: 335 nM in [3]. In addition, the molecule was classed as inactive in experiment [6], in experiment [7] and in experiment [2].
As to `O=C(Cl)Oc1ccccc1`, the outcome in experiment [4], in experiment [5], in experiment [6], in experiment [1], in experiment [7] and in experiment [8] was inactive. The outcome in experiment [9], in experiment [10], in experiment [2] and in experiment [3] was inactive.
Consider `CCCCO[P+](=O)OCCCC`, for which the call in [6], in experiment [2] and in experiment [3] was inactive.
In the case of `CC(C)CCCCCCCOP(OCCCCCCCC(C)C)Oc1ccccc1`, the result in experiment [6] and in experiment [1] was inactive. The AC50 in experiment [2] was active: 36.6 µM; in experiment [3], active: 1.22 µM.
On to `O=[N+]([O-])c1ccc([N+](=O)[O-])cc1`, for which the values for the AC50 in experiment [4] and in experiment [10] were active: 7.91 µM and active: 20 µM, respectively. The outcome in [5], in experiment [1], in experiment [7], in experiment [2] and in experiment [3] was inactive.
Take `CCCCC(CC)CO[P+](=O)OCC(CC)CCCC` (configuration not stated): the call in [2] was inactive. For the same molecule, the AC50 in experiment [3] was active: 12.3 µM.
Regarding `O=[As]c1ccccc1` (configuration not stated), the molecule was called inactive in experiment [2].
`O=[p+]1oc2ccccc2c2ccccc21` (configuration not stated): the result in experiment [6], in [2] and in experiment [3] was inactive.
For `O=[P+](Oc1ccccc1)Oc1ccccc1`, the molecule was classed as inactive in experiment [1], in [8] and in [3].
On to `O=C(Cl)OCCOC(=O)Cl`, for which the result in [6] and in experiment [8] was inactive.
For `CN(C(=O)Cc1cccc2occc12)[C@H]1CC[C@@]2(CCCO2)C[C@@H]1N1CCCC1`, the outcome in [4], in [5], in experiment [7], in [9], in experiment [10] and in experiment [2] was inactive. Moreover, the AC50 in experiment [3] was active: 27.2 µM.
Take `Cc1cc([N+](=O)[O-])cc([N+](=O)[O-])c1O`: the result in experiment [4], in experiment [6], in experiment [1], in experiment [7], in experiment [9] and in experiment [10] was inactive. In addition, the outcome in experiment [3] was inactive.
`N#CSc1ccc([N+](=O)[O-])cc1[N+](=O)[O-]`: the molecule was classed as inactive in experiment [6], in experiment [1], in [2] and in experiment [3].
With `O=C1C2CC=CCC2C(=O)N1SC(Cl)(Cl)C(Cl)Cl` (configuration not stated), the AC50 in experiment [4] was active: 8.85 µM; in [10] it was active: 3.15 µM. Also, the molecule was called inactive in [6], in [1], in experiment [8], in [2] and in experiment [3].
As for `ClP(Cl)c1ccccc1`, the call in experiment [9] and in experiment [2] was inactive.
`CCCCOP(OCCCC)OCCCC`: the molecule was classed as inactive in [1], in experiment [8] and in experiment [9]. Moreover, the AC50 in experiment [2] was active: 34 µM; in [3], active: 6.25 µM.
